Assay results as given in PubChem BioAssay AID1259374 (The Scripps Research Institute Molecular Screening Center, 2018).
This is a selection; strong and weak results do not stand in their true shares. Some salts and complexes are drawn in separate pieces, as the source files them; their charges need not balance. Calls of active or inactive are those of the source. No stated cut-off is given here; in the data, active means inhibition above about 50%; inactive means the rest.

Amino acid sequences for entries named in this document (tags omitted).
UniProt O75030, whole entry: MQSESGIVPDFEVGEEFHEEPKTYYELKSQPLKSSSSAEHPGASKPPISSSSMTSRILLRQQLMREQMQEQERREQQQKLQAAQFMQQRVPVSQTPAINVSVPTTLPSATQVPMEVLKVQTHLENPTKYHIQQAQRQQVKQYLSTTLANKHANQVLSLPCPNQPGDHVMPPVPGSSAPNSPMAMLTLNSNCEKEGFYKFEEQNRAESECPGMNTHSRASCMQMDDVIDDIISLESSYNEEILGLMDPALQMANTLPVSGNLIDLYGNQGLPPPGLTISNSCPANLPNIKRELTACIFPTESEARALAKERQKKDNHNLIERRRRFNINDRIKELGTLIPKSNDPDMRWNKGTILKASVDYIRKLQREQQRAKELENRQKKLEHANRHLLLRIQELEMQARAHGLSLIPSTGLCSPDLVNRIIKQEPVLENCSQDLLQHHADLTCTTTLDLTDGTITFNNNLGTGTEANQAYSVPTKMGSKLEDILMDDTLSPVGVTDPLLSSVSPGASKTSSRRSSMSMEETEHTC

Each compound was assayed against Microphthalmia-associated transcription factor (Homo sapiens) (UniProt O75030) (assay: MITF inhibitors, primary screen, biochemical, AlphaScreen, human (AID 1259374;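 further: 0% = vehicle wells with protein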)). Details: AlphaScreen MITF homodimerization, bead proximity signal; at 2.6 µM; active compounds read high.

Q: For Cc1ccc(NP(C)(=O)Oc2ccccc2)cc1C (centres undefined), which inhibition is on record?
A: inactive: 4.08%

Q: CCN(CC)P(=O)(c1c([N+](=O)[O-])cc([N+](=O)[O-])cc1[N+](=O)[O-])N(CC)CC was tested. Which inhibition did it give?
A: inactive: -0.21%

Q: For CP(=O)(O)OC(c1cccc(Cl)c1)C(F)(F)F (centres undefined), which inhibition is on record?
A: inactive: -5.35%

Q: With CP(=O)(NC(=O)Nc1ccccc1)Oc1ccccc1 (centres undefined) as the compound, how does the inhibition read?
A: inactive: 5.09%

Q: C=C(C)CC1NC2CC(C)(C)C1c1ccccc12.O=[N+]([O-])c1cc([N+](=O)[O-])c(O)c([N+](=O)[O-])c1 (centres undefined) was tested. Which inhibition did it give?
A: inactive: -19.4%

Q: How did the inhibition turn out when COc1ccc(NP(C)(=O)Oc2ccc(C(C)C)cc2)cc1 (centres undefined) was run?
A: inactive: -9.55%

Q: For CCOP(C)(=S)SCC(=O)NC(Cc1ccccc1)C(=O)O (centres undefined), which inhibition is on record?
A: inactive: 5.77%

Q: For COc1cc2nc(C)sc2cc1NC(C)=O, which inhibition is on record?
A: inactive: 23.4%

Q: Which inhibition does the source give for CP(=O)(Nc1ccccn1)Oc1ccc(Cl)cc1 (centres undefined) here?
A: inactive: -3.56%

Q: Which inhibition does the source give for CCOP(C)(=S)SCC(=O)NC(C)C(=O)O (centres undefined) here?
A: inactive: 1.39%

Q: With Cc1ccc(Cl)cc1OP(C)(=O)Nc1cccc2nsnc12 (centres undefined) as the compound, how does the inhibition read?
A: inactive: -0.26%

Q: For COc1ccccc1OP(C)(=O)Nc1cccc(Cl)c1C (centres undefined), which inhibition is on record?
A: inactive: 8.33%

Q: How did the inhibition turn out when CP(=O)(O)OC(c1ccc(Cl)cc1)C(F)(F)F (centres undefined) was run?
A: inactive: -3.07%

Q: Which inhibition does the source give for Cc1cccc(NP(C)(=O)Oc2ccccc2)c1 (centres undefined) here?
A: inactive: 13.1%

Q: With CCOC(=O)c1ccc(NP(C)(=O)Oc2ccc(OC)cc2)cc1 (centres undefined) as the compound, how does the inhibition read?
A: inactive: -0.45%

Q: O=[N+]([O-])c1cc([N+](=O)[O-])c(CCO)c([N+](=O)[O-])c1 was tested. Which inhibition did it give?
A: inactive: 3.16%

Q: How did the inhibition turn out when COc1ccc(NP(C)(=O)OC(c2ccccc2)C(F)(F)F)cc1 (centres undefined) was run?
A: inactive: -6.93%

Q: With CP(=O)(O)OC(c1ccccc1)C(F)(F)F (centres undefined) as the compound, how does the inhibition read?
A: inactive: 4.63%

Q: How did the inhibition turn out when CN(C)CCOC(=O)C(O)(c1ccccc1)c1ccccc1 was run?
A: inactive: -5.15%

Q: With COc1ccccc1OP(C)(=O)Nc1ccccc1 (centres undefined) as the compound, how does the inhibition read?
A: inactive: 11.4%

Q: For CC(Nc1c([N+](=O)[O-])cc([N+](=O)[O-])cc1[N+](=O)[O-])c1ccc([N+](=O)[O-])cc1 (centres undefined), which inhibition is on record?
A: inactive: 20.7%

Q: Which inhibition does the source give for CP(=O)(Nc1ccccc1Br)Oc1ccccc1 (centres undefined) here?
A: inactive: 4.33%

Q: For CP(=O)(Nc1ccc(Cl)cc1)Oc1ccccc1 (centres undefined), which inhibition is on record?
A: inactive: -17.2%

Q: O=C(O)C(O)(c1ccccc1)c1ccccc1 was tested. Which inhibition did it give?
A: inactive: -7.12%

Q: How did the inhibition turn out when O=C(O)Cc1c([N+](=O)[O-])cc([N+](=O)[O-])cc1[N+](=O)[O-] was run?
A: inactive: 17.7%

Q: Which inhibition does the source give for CCc1ccc(OP(C)(=O)Nc2ccccc2I)cc1 (centres undefined) here?
A: inactive: 12.5%

Q: For CP1(=O)Oc2ccccc2Cc2ccccc2O1, which inhibition is on record?
A: inactive: 10.7%

Q: For CC(CCN([N+](=O)[O-])S(=O)(=O)c1ccc([N+](=O)[O-])cc1)([N+](=O)[O-])[N+](=O)[O-], which inhibition is on record?
A: inactive: -10.2%

Q: Which inhibition does the source give for CC(C)(C)c1ccc(OP(C)(N)=O)cc1 (centres undefined) here?
A: inactive: 8.51%

Q: How did the inhibition turn out when O=C(O)C1(O)c2ccccc2-c2ccccc21 was run?
A: inactive: 3.73%

Q: COc1ccccc1OP(C)(=O)Nc1cc(Cl)ccc1C (centres undefined) was tested. Which inhibition did it give?
A: inactive: 1.04%

Q: Cc1cc(C)cc(OP(C)(=O)NCc2ccccc2)c1 (centres undefined) was tested. Which inhibition did it give?
A: inactive: 13.2%

Q: CP(=O)(O)OC(c1cccc(C(F)(F)F)c1)C(F)(F)F (centres undefined) was tested. Which inhibition did it give?
A: inactive: 5.82%

Q: With CCOC(=O)c1ccc(NP(C)(=O)Oc2ccccc2)cc1 (centres undefined) as the compound, how does the inhibition read?
A: inactive: 6.14%

Q: Cc1ccc(NP(C)(=O)Oc2ccccc2)c(C)c1 (centres undefined) was tested. Which inhibition did it give?
A: inactive: 2.25%

Q: How did the inhibition turn out when COc1ccccc1OP(C)(=O)Nc1ccc(C)cc1 (centres undefined) was run?
A: inactive: -1.33%

Q: CCN(CC)c1nc(C)cc(C)n1.O=[N+]([O-])c1cc([N+](=O)[O-])c(O)c([N+](=O)[O-])c1 was tested. Which inhibition did it give?
A: inactive: 14.9%

Q: For Cc1cc(C)cc(OP(C)(=O)Nc2ccc(F)cc2)c1 (centres undefined), which inhibition is on record?
A: inactive: 7.25%

Q: How did the inhibition turn out when Cc1ccc2c(c1)c1nc(C)sc1n2C.O=[N+]([O-])c1cc([N+](=O)[O-])c(O)c([N+](=O)[O-])c1 was run?
A: inactive: -7.52%

Q: How did the inhibition turn out when Cc1ccc(NP(C)(=O)Oc2ccccc2)cc1 (centres undefined) was run?
A: inactive: -16%

Q: For CCN(CC)CCCOC(=O)C(O)(c1ccccc1)c1ccccc1, which inhibition is on record?
A: inactive: -4.08%

Q: CCCCOC(=O)Nc1c([N+](=O)[O-])cc([N+](=O)[O-])cc1[N+](=O)[O-] was tested. Which inhibition did it give?
A: inactive: -2.15%

Q: How did the inhibition turn out when COc1ccccc1OP(C)(=O)Nc1ccc(Cl)cc1Cl (centres undefined) was run?
A: inactive: -4.13%

Q: For CC(C)Oc1ccc(NP(C)(=O)Oc2ccc(Cl)cc2)cc1 (centres undefined), which inhibition is on record?
A: inactive: 6.16%

Q: With O=[N+]([O-])c1c(NCCO)c([N+](=O)[O-])c(NCCO)c([N+](=O)[O-])c1NCCO as the compound, how does the inhibition read?
A: inactive: -4.75%

Q: How did the inhibition turn out when CCOP(C)(=S)SCN(CC(=O)O)C(=O)OC (centres undefined) was run?
A: active: 61.9%

Q: Which inhibition does the source give for O=c1[nH]c2cc([N+](=O)[O-])c([N+](=O)[O-])c([N+](=O)[O-])c2[nH]1 here?
A: inactive: 26.3%

Q: How did the inhibition turn out when CCOC(=O)c1ccc(NP(C)(=O)Oc2cc(C)cc(C)c2)cc1 (centres undefined) was run?
A: inactive: 10.5%

Q: How did the inhibition turn out when CC1=[N+](C)C(C)(C)Cc2ccccc21.O=[N+]([O-])c1cc([N+](=O)[O-])c(O)c([N+](=O)[O-])c1 was run?
A: inactive: -4.88%

Q: How did the inhibition turn out when COc1ccccc1OP(C)(=O)Nc1ccc(Cl)cc1 (centres undefined) was run?
A: inactive: 0.18%

Q: COc1ccccc1OP(C)(=O)Nc1cccc(Br)c1 (centres undefined) was tested. Which inhibition did it give?
A: inactive: 4.03%

Q: With COc1ccc(OP(C)(=O)Nc2cccc(Cl)c2C)cc1 (centres undefined) as the compound, how does the inhibition read?
A: inactive: 6.41%

Q: Which inhibition does the source give for CC(=O)NC1(NC(C)=O)CC(C)N(C)CC1C.O=[N+]([O-])c1cc([N+](=O)[O-])c(O)c([N+](=O)[O-])c1 (centres undefined) here?
A: inactive: -4.72%

Q: O=[N+]([O-])c1cnc(Nc2c([N+](=O)[O-])cc([N+](=O)[O-])cc2[N+](=O)[O-])c([N+](=O)[O-])c1 was tested. Which inhibition did it give?
A: inactive: 0.94%

Q: CP(=O)(Nc1cccc(Br)c1)Oc1ccccc1 (centres undefined) was tested. Which inhibition did it give?
A: inactive: 11.6%

Q: How did the inhibition turn out when C=CCC1(CC=C)CCCCCCCCCCCN1.O=[N+]([O-])c1cc([N+](=O)[O-])c(O)c([N+](=O)[O-])c1 was run?
A: inactive: 13.1%

Q: For O=[N+]([O-])c1cc2[nH]c3cc([N+](=O)[O-])c([N+](=O)[O-])cc3c2cc1[N+](=O)[O-], which inhibition is on record?
A: active: 88.2%

Q: With Cc1ccc(C)c(NP(C)(=O)Oc2ccccc2)c1 (centres undefined) as the compound, how does the inhibition read?
A: inactive: -4.23%

Q: Nc1c([N+](=O)[O-])cc([N+](=O)[O-])c(Nc2ccc(C(=O)O)cc2)c1[N+](=O)[O-] was tested. Which inhibition did it give?
A: inactive: 8.45%

Q: Which inhibition does the source give for O=[N+]([O-])C12CC3(O)CC([N+](=O)[O-])(C1)CC([N+](=O)[O-])(C3)C2 here?
A: inactive: -9.16%

Q: For O=[N+]([O-])Nc1nc(CCc2n[nH]c(N[N+](=O)[O-])n2)n[nH]1, which inhibition is on record?
A: inactive: -7.13%

Q: Cc1ccc(Cl)c(OP(C)(=O)Nc2ccccn2)c1 (centres undefined) was tested. Which inhibition did it give?
A: inactive: 6.11%

Q: CCOC(=O)C(CC)C1=NC(C)(C)Cc2ccccc21.O=[N+]([O-])c1cc([N+](=O)[O-])c(O)c([N+](=O)[O-])c1 (centres undefined) was tested. Which inhibition did it give?
A: inactive: 3.35%

Q: For CP(=O)(Nc1ccc(Br)cc1)Oc1ccc(Cl)cc1 (centres undefined), which inhibition is on record?
A: inactive: -9.6%

Q: With CP(=O)(Nc1cccc(Br)c1)Oc1ccc(Cl)cc1 (centres undefined) as the compound, how does the inhibition read?
A: inactive: 0.97%

Q: CCCOc1ccc(NP(C)(=O)Oc2ccccc2OC)cc1 (centres undefined) was tested. Which inhibition did it give?
A: inactive: 1.61%

Q: For Cc1cc(N(C)C)cc[n+]1C(=O)N(C)C.c1ccc([B-](c2ccccc2)(c2ccccc2)c2ccccc2)cc1, which inhibition is on record?
A: inactive: 2.68%

Q: Which inhibition does the source give for CCN(CC)C(C)COC(=O)C(O)(c1ccccc1)c1ccccc1 (centres undefined) here?
A: inactive: -8.29%

Q: For COc1ccccc1OP(C)(=O)Nc1c(C)cccc1C (centres undefined), which inhibition is on record?
A: inactive: 7.32%

Q: CCN(CC)C(=O)c1c([N+](=O)[O-])cc([N+](=O)[O-])cc1[N+](=O)[O-] was tested. Which inhibition did it give?
A: inactive: 6.71%

Q: For Nc1nonc1-c1no[n+]([O-])c1-c1nonc1N, which inhibition is on record?
A: inactive: 2.63%

Q: For CP(=O)(O)OC(c1ccccc1)C(Cl)(Cl)C(F)(F)F (centres undefined), which inhibition is on record?
A: inactive: -7.22%

Q: CN(C)/N=C/c1ccc(-c2c([N+](=O)[O-])cc([N+](=O)[O-])cc2[N+](=O)[O-])o1 was tested. Which inhibition did it give?
A: inactive: 18.9%

Q: Which inhibition does the source give for Cc1cc(-c2nc3ccccc3[nH]2)c2ccccc2n1.O=[N+]([O-])c1cc([N+](=O)[O-])c(O)c([N+](=O)[O-])c1 here?
A: inactive: 6.79%

Q: COc1ccc(NP(C)(=O)Oc2ccc(Cl)cc2)cc1 (centres undefined) was tested. Which inhibition did it give?
A: inactive: -4.54%

Q: With CP(=O)(O)OC(c1ccccc1)C(F)(F)C(F)(F)F (centres undefined) as the compound, how does the inhibition read?
A: inactive: 2.81%

Q: Cc1ccc(Cl)c(OP(C)(=O)Nc2ccc(F)cc2)c1 (centres undefined) was tested. Which inhibition did it give?
A: inactive: -0.5%

Q: With Cc1c([N+](=O)[O-])c(C)c([N+](=O)[O-])c(C)c1[N+](=O)[O-] as the compound, how does the inhibition read?
A: inactive: 3.38%

Q: How did the inhibition turn out when [N-]=[N+]=NCN1c2nonc2N(CN=[N+]=[N-])c2nonc21 was run?
A: inactive: 7.57%

Q: For COc1ccc(OP(C)(=O)Nc2ccccc2)cc1 (centres undefined), which inhibition is on record?
A: inactive: 2.43%

Q: Which inhibition does the source give for Cc1ccccc1NP(C)(=O)Nc1ccccc1C here?
A: inactive: 4.35%

Q: CP(=O)(Nc1ccc2c(c1)OCCO2)Oc1ccccc1 (centres undefined) was tested. Which inhibition did it give?
A: inactive: -1.62%

Q: How did the inhibition turn out when CCN(CC)c1c([N+](=O)[O-])cc([N+](=O)[O-])cc1[N+](=O)[O-] was run?
A: inactive: 23.9%

Q: COC(=O)Nc1nc2ccccc2[nH]1.O=C1CCCN1c1ccc(S(=O)(=O)O)cc1[N+](=O)[O-] was tested. Which inhibition did it give?
A: inactive: 5.3%

Q: Which inhibition does the source give for COc1ccc(NP(C)(=O)Oc2ccccc2OC)cc1 (centres undefined) here?
A: inactive: -0.34%

Q: With CC(=O)OC1(C#N)CN2CCC1CC2 (centres undefined) as the compound, how does the inhibition read?
A: inactive: -1.26%

Q: O=[N+]([O-])c1cc([N+](=O)[O-])c(Nc2c([N+](=O)[O-])cc([N+](=O)[O-])cc2[N+](=O)[O-])c([N+](=O)[O-])c1 was tested. Which inhibition did it give?
A: inactive: 18.2%

Q: CN(C)CCOC(=O)C(O)(c1ccccc1)C1CCCCC1 (centres undefined) was tested. Which inhibition did it give?
A: active: 67.1%

Q: For O=[N+]([O-])c1ccc(Nc2c([N+](=O)[O-])cc([N+](=O)[O-])cc2[N+](=O)[O-])cc1, which inhibition is on record?
A: inactive: 9.89%
